Drawing on PubChem BioAssay AID493087 (The Scripps Research Institute Molecular Screening Center, 2011), this text covers activation for 57 molecules.

The chains behind the UniProt entries cited, without tags or fusion partners.
UniProt P14735, whole entry, looked up: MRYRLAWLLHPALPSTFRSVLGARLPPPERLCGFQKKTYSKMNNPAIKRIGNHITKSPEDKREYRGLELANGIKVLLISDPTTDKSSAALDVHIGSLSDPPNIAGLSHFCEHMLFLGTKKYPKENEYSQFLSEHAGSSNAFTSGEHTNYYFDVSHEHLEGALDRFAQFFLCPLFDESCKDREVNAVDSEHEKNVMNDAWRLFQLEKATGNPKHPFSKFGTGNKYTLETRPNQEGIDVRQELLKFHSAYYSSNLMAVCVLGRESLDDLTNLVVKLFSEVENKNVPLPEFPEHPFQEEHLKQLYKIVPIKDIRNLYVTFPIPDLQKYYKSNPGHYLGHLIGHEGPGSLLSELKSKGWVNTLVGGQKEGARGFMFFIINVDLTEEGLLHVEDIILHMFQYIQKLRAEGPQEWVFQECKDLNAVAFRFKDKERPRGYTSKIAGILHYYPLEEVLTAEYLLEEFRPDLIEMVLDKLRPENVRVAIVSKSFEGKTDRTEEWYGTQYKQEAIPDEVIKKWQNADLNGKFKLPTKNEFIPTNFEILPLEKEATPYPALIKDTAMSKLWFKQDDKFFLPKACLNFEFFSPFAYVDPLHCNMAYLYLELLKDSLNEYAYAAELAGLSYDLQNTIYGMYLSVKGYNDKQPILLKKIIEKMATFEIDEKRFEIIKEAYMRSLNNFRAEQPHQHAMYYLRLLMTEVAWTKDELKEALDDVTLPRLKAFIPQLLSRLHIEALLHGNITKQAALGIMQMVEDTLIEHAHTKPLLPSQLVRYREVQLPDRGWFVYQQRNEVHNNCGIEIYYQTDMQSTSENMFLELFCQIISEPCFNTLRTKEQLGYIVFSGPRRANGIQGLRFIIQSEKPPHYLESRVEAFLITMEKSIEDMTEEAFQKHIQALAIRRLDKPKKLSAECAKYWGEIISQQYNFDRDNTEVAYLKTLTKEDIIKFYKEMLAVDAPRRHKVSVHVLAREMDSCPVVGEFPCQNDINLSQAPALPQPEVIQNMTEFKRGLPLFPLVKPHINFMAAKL

This is a selection; strong and weak results do not stand in their true shares. The source made the active and inactive calls.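 How the source made its calls: active means activation above the mean of all tested compounds plus 3 SD, set per screening campaign (cut at about 17% in these data); inactive means the rest.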

This assay deals with Insulin-degrading enzyme (Homo sapiens) (UniProt P14735). Put plainly: human IDE activators in live cells, primary screen, fluorescence polarization, HEK cells, FAbeta-B substrate (AID 493087). Particulars: FAbeta-B cleavage, at 5.96 µM, hits give high values, 0% vehicle, 100% cell-free pure enzyme wells.
As to `C[N+]1=C2C=CC=CC=C2SC12C([N+](=O)[O-])=CC([N+](=O)[O-])=C[C-]2[N+](=O)[O-]` (configuration not stated), the activation was inactive: -9.13%.

As to `CCN(/C(=N/P(=O)(N1CCOCC1)N1CCOCC1)N1CCOCC1)c1ccc(OC)cc1`, the activation was inactive: -3.59%.

With `CC(C)=N/N=C(\N)N[N+](=O)[O-]`, the activation was inactive: 3.77%.

With `CN(C)C(=O)OCCc1n(C)cc[n+]1C`, the activation is inactive: -1.99%.

Take `CC1CCN(C(=O)Oc2c(Cl)cc(Cl)c3cccnc23)CC1`: the activation was inactive: 6.08%.

Regarding `COc1ccc(C2=NCC(CBr)S2)cc1` (configuration not stated), the activation is inactive: 1.95%.

As for `CC(=O)N1C2C3N(C(C)=O)C1C1N(C(C)=O)C(C(N1C(C)=O)N3C(C)=O)N2C(C)=O`, the activation was inactive: 0.19%.

For the molecule `O=[N+]([O-])c1cccc2n[nH]nc12`, the activation is inactive: -2.65%.

For `Cc1ccc(NP(=O)(Oc2ccccc2)Oc2ccccc2)nc1`, the activation was inactive: 1.26%.

`O=[N+]([O-])c1cc([N+](=O)[O-])c(CCNc2ccccc2)c([N+](=O)[O-])c1`: the activation is inactive: 4.73%.

Turning to `CCc1nc2c(n1)c1c(non1O)c1c2no[n+]1[O-]`, the activation is inactive: 1.8%.

Turning to `CC(C)(C)C(=O)NC(Sc1ccncn1)C(Cl)(Cl)Cl` (configuration not stated), the activation was inactive: -7.29%.

Consider `O=[N+]([O-])c1ncn(CCn2ncnc2[N+](=O)[O-])n1`, for which the activation is inactive: -0.58%.

Turning to `O=[N+]([O-])c1cccc(NC2=NCC(CBr)S2)c1` (configuration not stated), the activation was inactive: 2.22%.

Regarding `COC(=O)C1(C)COP(=O)(Nc2ccccc2)OC1` (configuration not stated), the activation was inactive: 2.65%.

As to `O=C(O)CNc1ccc([As](=O)(O)O)cc1`, the activation is inactive: 2.99%.

In the case of `O=P1(N(CCCl)CCCl)OCCCS1` (configuration not stated), the activation is inactive: 3.07%.

For `O=C(Nc1cc([As](=O)(O)O)ccc1O)c1ccccc1`, the activation was inactive: 4.29%.

As to `O=[N+]([O-])c1ncn(CCn2cnc([N+](=O)[O-])n2)n1`, the activation was inactive: 7.8%.

In the case of `CC(=O)NC(SC(=S)N(C)C)C(Cl)(Cl)Cl` (configuration not stated), the activation was inactive: 1.52%.

For `O=[N+]([O-])c1ccc(O)c(/C=N/Nc2ccc([N+](=O)[O-])cc2[N+](=O)[O-])c1`, the activation is inactive: -2.3%.

For the molecule `O=[As](O)(c1ccccc1)c1ccc(O)cc1`, the activation is inactive: 4.63%.

`Nc1ccc([As](=O)(O)c2ccc([N+](=O)[O-])cc2)cc1`: the activation is inactive: -5.07%.

In the case of `C(Cc1nn[nH]n1)Cc1nn[nH]n1`, the activation was inactive: 5.39%.

In the case of `O=C(OC1CN2CCC1CC2)c1cccc(Cl)c1` (configuration not stated), the activation is inactive: 1.17%.

As for `COc1ccc(N)c([N+](=O)[O-])c1[N+](=O)[O-]`, the activation was inactive: 1.14%.

For `CN(C)C1(CNC(=O)c2ccc(Cl)c(S(N)(=O)=O)c2)CCCCC1`, the activation was inactive: 2.38%.

Consider `O=P(Nc1ccccn1)(c1ccc(Br)cc1)c1ccc(Br)cc1`, for which the activation was inactive: 0.64%.

As to `O=P(Nc1nc2ccccc2s1)(c1ccccc1)c1ccccc1`, the activation is inactive: 2.75%.

As for `C[C@H]1OP(=O)(Oc2ccccc2)[C@H](O)[C@H](O)[C@H]1N=[N+]=[N-]` (some centres not stated), the activation is inactive: 1.98%.

In the case of `O=P(Nc1nccs1)(c1ccccc1)c1ccccc1`, the activation was inactive: 2.9%.

Consider `CC(C)C(=O)NC(Sc1ccccc1)C(Cl)(Cl)Cl` (configuration not stated), for which the activation was inactive: 0.72%.

Regarding `c1nnnn1CCn1cnnn1`, the activation was inactive: -3.56%.

`N#C/C(=C\c1ccc(N(CCBr)CCBr)cc1)C(N)=O`: the activation was inactive: -1.87%.

As for `CC(=O)c1ccc(N2CC2c2ccncc2)cc1` (configuration not stated), the activation is inactive: 0.05%.

Consider `COC(=O)C1(C)COP(=O)(NCc2ccccc2)OC1` (configuration not stated), for which the activation was inactive: 4.1%.

In the case of `Cc1ccccc1CN(C)C(=O)COC(=O)C(O)(c1ccccc1)c1ccccc1`, the activation is inactive: 2.28%.

Regarding `C[C@@H]1C=CCP(=O)(Oc2ccccc2)O1` (some centres not stated), the activation was inactive: 1.27%.

Regarding `C[C@H]1OP(=O)(Oc2ccccc2)C[C@@H]2O[C@@H]21` (some centres not stated), the activation was inactive: 1.08%.

In the case of `CC(=O)Nc1ccc([As](=O)(O)O)c(O)c1`, the activation was inactive: 5.67%.

As for `CC(=O)Nc1ccc(Oc2c([N+](=O)[O-])cc([N+](=O)[O-])cc2[N+](=O)[O-])cc1`, the activation was inactive: 1.61%.

For `O=P1(Nc2nc3ccc(Cl)cc3s2)COc2ccccc2O1` (configuration not stated), the activation was inactive: 0.47%.

On to `CCOc1ccc(C2=NCC(CBr)S2)cc1` (configuration not stated), for which the activation was inactive: -0.63%.

On to `CCc1cc(O)c([N+](=O)[O-])c(C)c1[N+](=O)[O-]`, for which the activation is inactive: 1.58%.

For the molecule `CC(C)(C)C(=O)NC(Sc1ccccc1)C(Cl)(Cl)Cl` (configuration not stated), the activation is inactive: 4.56%.

As for `COC(=O)c1cc2c(s1)N=C(c1ccccc1)N(C)P2(=O)N1CCOCC1` (configuration not stated), the activation is inactive: 3.51%.

Regarding `Cc1ccc(OP(=O)(Nc2ccccn2)Oc2ccc(C)cc2)cc1`, the activation was inactive: 1.92%.

With `CC(=O)NC(SC(=S)N(CC(C)C)CC(C)C)C(Cl)(Cl)Cl` (configuration not stated), the activation was inactive: -0.52%.

On to `O=C(OC1CN2CCC1CC2)c1ccccc1` (configuration not stated), for which the activation was inactive: 5.28%.

As for `CCC(=O)N1C2C3N(C(=O)CC)C1C1N(C(=O)CC)C(C(N1C(=O)CC)N3C(=O)CC)N2C(=O)CC`, the activation is inactive: 0.82%.

For `Cc1ccccc1OP(=O)(Nc1ccccn1)Oc1ccccc1C`, the activation is inactive: 6.81%.

For `CC(NC(=O)COC(=O)C(O)(c1ccccc1)c1ccccc1)c1ccccc1` (configuration not stated), the activation was inactive: -1.03%.

In the case of `CN(C)C(=O)Oc1noc2ccccc12`, the activation was inactive: 3.41%.

For the molecule `O=c1c2cc([N+](=O)[O-])ccc2[nH]c2c([N+](=O)[O-])cc([N+](=O)[O-])cc12`, the activation is inactive: 5%.

For `O=C(NC1CCS(=O)(=O)C1)NP(=S)(Oc1ccccc1)Oc1ccccc1` (configuration not stated), the activation was inactive: 6.28%.

`CCNC(=S)/N=C(\N)N[N+](=O)[O-]`: the activation is inactive: -0.65%.

Regarding `O=P1(N(CCCl)CCCl)OCCC2CCCCN21` (configuration not stated), the activation is inactive: -1.07%.
